Laboratory results taken from ChEMBL document CHEMBL2062414, “Selected chromone derivatives as inhibitors of monoamine oxidase” (Bioorg Med Chem Lett, 2012).

Amino acid sequences for entries named in this document (tags omitted).
UniProt P27338, whole entry: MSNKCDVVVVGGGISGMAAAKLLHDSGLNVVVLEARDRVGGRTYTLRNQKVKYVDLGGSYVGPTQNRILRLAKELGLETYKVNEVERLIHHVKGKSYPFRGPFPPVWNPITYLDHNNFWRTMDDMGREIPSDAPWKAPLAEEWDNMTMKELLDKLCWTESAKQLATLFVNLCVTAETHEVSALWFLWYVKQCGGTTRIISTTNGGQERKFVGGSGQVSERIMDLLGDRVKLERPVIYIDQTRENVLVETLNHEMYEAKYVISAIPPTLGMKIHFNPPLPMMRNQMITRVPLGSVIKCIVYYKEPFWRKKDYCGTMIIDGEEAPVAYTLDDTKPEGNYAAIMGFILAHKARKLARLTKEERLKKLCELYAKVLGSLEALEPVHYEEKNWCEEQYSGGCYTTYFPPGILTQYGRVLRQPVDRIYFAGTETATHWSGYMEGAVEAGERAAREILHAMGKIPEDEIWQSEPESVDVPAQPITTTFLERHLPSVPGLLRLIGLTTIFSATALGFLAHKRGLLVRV

Legend:
[1] = target: Amine oxidase [flavin-containing] B (Homo sapiens, UniProt P27338); experiment: Inhibition of recombinant human MAO-B assessed as inhibition of kynuramine to 4-hydroxyquinoline conversion after 20 mins by fluorometry
Homo sapiens = species on record: Homo sapiens; experiment: Selectivity ratio of IC50 for recombinant human MAO-A to IC50 for recombinant human MAO-B
How it was run: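 This is a selectivity index for MAO-B, computed as IC50(MAO-A)/IC50(MAO-B). Both IC50s were measured fluorometrically on recombinant human enzymes as kynuramine conversion to 4-hydroxyquinoline, in triplicate.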

O=C1CC(O)Oc2ccc(OCc3cccc(Br)c3)cc21 (configuration not stated)
IC50 [1]: 5.7 nM | Ratio IC50 (Homo sapiens): 269
